Experimental data taken from article PMC9385671 (Nature Communications, 2022).

By UniProt entry, the sequences of proteins in these tests, tags left out. Residues count along the entry.
UniProt P0A9A6, 1-366: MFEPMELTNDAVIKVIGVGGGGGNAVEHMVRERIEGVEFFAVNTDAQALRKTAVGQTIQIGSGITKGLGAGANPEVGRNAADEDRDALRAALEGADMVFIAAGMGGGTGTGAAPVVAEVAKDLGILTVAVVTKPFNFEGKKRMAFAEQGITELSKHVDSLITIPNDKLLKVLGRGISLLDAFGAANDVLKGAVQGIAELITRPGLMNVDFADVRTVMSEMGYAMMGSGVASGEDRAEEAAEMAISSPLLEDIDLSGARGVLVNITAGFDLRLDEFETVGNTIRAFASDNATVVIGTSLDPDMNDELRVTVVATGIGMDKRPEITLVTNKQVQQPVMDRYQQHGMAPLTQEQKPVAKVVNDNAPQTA

Target: FtsZ-YFP-mts (Escherichia coli, UniProt P0A9A6)
Assay type: biochemical
Set-up: made in house; host or cells: E. coli BL21(DE3) for the wild type
Conditions: 5 μM protein, 1 mM GTP; average of two repeats
Procedure: Reactions were performed every 20 s for a total time of 120 s. After 30 min of incubation with BIOMOL® GREEN at room temperature, the absorbance of the samples at 620 nm was monitored by TECAN plate reader. The phosphate release concentrations were calculated based on a phosphate standard curve.

Question: Which “GTPase activity, Average” value does the source give for `N[C@@H](Cc1ccc(O)c(I)c1)C(=O)O` [IY, 3-iodo-L-tyrosine] here?
Answer: The value was 1.7632 pi/min.
